Amino acid sequences for entries named in this document (tags omitted).
UniProt Q15910, whole entry: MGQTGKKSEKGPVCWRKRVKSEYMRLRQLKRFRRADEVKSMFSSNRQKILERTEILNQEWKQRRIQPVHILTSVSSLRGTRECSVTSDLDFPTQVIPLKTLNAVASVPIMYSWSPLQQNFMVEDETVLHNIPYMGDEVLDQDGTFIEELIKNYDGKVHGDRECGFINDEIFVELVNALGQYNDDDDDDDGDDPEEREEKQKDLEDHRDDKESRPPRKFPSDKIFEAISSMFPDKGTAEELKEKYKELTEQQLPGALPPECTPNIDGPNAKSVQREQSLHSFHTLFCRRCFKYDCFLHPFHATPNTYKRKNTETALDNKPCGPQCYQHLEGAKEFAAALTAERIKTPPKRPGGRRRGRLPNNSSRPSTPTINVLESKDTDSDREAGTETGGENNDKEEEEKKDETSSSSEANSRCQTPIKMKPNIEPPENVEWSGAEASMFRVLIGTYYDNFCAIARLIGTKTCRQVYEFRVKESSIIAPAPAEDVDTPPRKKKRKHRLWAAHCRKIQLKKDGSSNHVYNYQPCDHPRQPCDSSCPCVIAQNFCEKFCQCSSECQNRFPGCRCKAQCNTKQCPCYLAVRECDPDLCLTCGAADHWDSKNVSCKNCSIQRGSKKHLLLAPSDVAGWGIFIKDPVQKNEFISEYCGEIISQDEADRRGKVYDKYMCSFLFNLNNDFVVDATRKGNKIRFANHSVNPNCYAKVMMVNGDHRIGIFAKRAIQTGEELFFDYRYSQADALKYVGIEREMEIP

In ChEMBL document CHEMBL5236580, “Blocking Non-enzymatic Functions by PROTAC-Mediated Targeted Protein Degradation” (J Med Chem, 2022):

Biological target: Histone-lysine N-methyltransferase EZH2 (Homo sapiens, UniProt Q15910)
Assay: Inhibition of EZH2 (unknown origin)

Cc1cc(C)c(CNC(=O)c2cc(-c3ccc(N4CCN(C(C)C)CC4)nc3)cc3c2cnn3C(C)C)c(=O)[nH]1
IC50: 0.044 µM
